Assay results from patent US12275706B2, “Malate salt of N-(4-{[6,7-bis(methyloxy) quinolin-4-yl]oxy}phenyl)-N′-(4-fluorophenyl)cyclopropane-1,1-dicarboxamide, and crystalline forms thereof for the treatment of cancer” (Exelixis, Inc., priority 2009, dated 2025).

Assay: Water solubility of free base and salts (salt screen)
Settings: 10 mg solids per mL water

Solubility: 3 µg/mL
Substance: Malonate
